Earlier results in patent publication US11672748B2, “Aqueous hair conditioner compositions containing solubilized anti-dandruff actives” (The Procter & Gamble Company, priority 2020, dated 2023).

Conditions: in water

Solubility in H2O: 0.294 µg/mL (≈ 1.14 µM)
SMILES: CC1COCc2cc3c(cc21)C(C)(C)C(C)C3(C)C (stereo not shown) [Galoxolide]

Values after ≈ are worked out from the molar mass of the structure shown.
